According to patent US8420644B2, “Pharmaceutical composition intended for the prevention or for the treatment of cerebral oedemas” (Biocodex, priority 2005, dated 2013):
Like-named read-outs stand apart in the source and are kept apart here.

What was measured:
[1] = tested on: ambulatory activity disrupted by triethyltin (TET); conditions: TET 0
[2] = tested on: neurological index disrupted by triethyltin (TET); conditions: for Behavioural sign (neurological index): no TET
[3] = moclobemide 2 × 50 mg/kg/day, TET 0, day 0
[4] = moclobemide 2 × 50 mg/kg/day, TET 0, day 1
[5] = moclobemide 2 × 50 mg/kg/day, TET 0, day 2
[6] = moclobemide 2 × 50 mg/kg/day, TET 0, day 3
[7] = moclobemide 2 × 50 mg/kg/day, TET 0, day −3
[8] = moclobemide 2 × 100 mg/kg/day + TET 3 mg/kg/day, day 1
[9] = moclobemide 2 × 100 mg/kg/day, TET 0, day 0
[10] = moclobemide 2 × 100 mg/kg/day, TET 0, day 1
[11] = moclobemide 2 × 100 mg/kg/day, TET 0, day 2
[12] = moclobemide 2 × 100 mg/kg/day, TET 0, day 3
[13] = moclobemide 2 × 100 mg/kg/day, TET 0, day −3
[14] = moclobemide 2 × 100 mg/kg/day, day 4
[15] = moclobemide 2 × 100 mg/kg/day, day −3, before any treatment

moclobemide
Body weight (grammes ± esm) [3]: 248 ± 3 grammes | Body weight (grammes ± esm) [4]: 247 ± 4 grammes | Body weight (grammes ± esm) [5]: 251 ± 4 grammes | Body weight (grammes ± esm) [6]: 255 ± 4 grammes | Body weight (grammes ± esm) [7]: 215 ± 3 grammes | Body weight (grammes ± esm) [8]: 240 ± 3 grammes | Body weight (grammes ± esm) [9]: 240 ± 3 grammes | Body weight (grammes ± esm) [10]: 234 ± 3 grammes | Body weight (grammes ± esm) [11]: 239 ± 4 grammes | Body weight (grammes ± esm) [12]: 238 ± 4 grammes | Body weight (grammes ± esm) [13]: 201 ± 5 grammes | Vertical ambulatory activity (means ± esm) ([1]; moclobemide 2 × 50 mg/kg/day, day 4): 160 ± 20 arbitrary unit | Vertical ambulatory activity (means ± esm) ([1]; moclobemide 2 × 50 mg/kg/day, day −3, before any treatment): 355 ± 46 arbitrary unit | Horizontal ambulatory activity (means ± esm) [1, 14]: 776 ± 168 arbitrary unit | Total ambulatory activity (means ± esm) [1, 14]: 1091 ± 218 arbitrary unit | Vertical ambulatory activity (means ± esm) [1, 14]: 64 ± 17 arbitrary unit | Horizontal ambulatory activity (means ± esm) [1, 15]: 1863 ± 276 arbitrary unit | Total ambulatory activity (means ± esm) [1, 15]: 2599 ± 360 arbitrary unit | Vertical ambulatory activity (means ± esm) [1, 15]: 199 ± 35 arbitrary unit | Neurological index (means ± esm), score 0 to 3 ([2]; moclobemide 2 × 50 mg/kg/day + TET 3 mg/kg/day, day 0): 0 | Neurological index (means ± esm), score 0 to 3 ([2]; moclobemide 2 × 50 mg/kg/day + TET 3 mg/kg/day, day 1): 0 | Neurological index (means ± esm), score 0 to 3 ([2]; moclobemide 2 × 50 mg/kg/day + TET 3 mg/kg/day, day 2): 0.10 ± 0.10 | Neurological index (means ± esm), score 0 to 3 ([2]; moclobemide 2 × 50 mg/kg/day + TET 3 mg/kg/day, day −3): 0 | Behavioural sign (neurological index) ([2]; moclobemide 2×50 mg/kg/day for 5 days): does not lead to any behavioural sign | Neurological index (means ± esm), score 0 to 3 [2, 3]: 0 | Neurological index (means ± esm), score 0 to 3 [2, 4]: 0 | Neurological index (means ± esm), score 0 to 3 [2, 5]: 0 | Neurological index (means ± esm), score 0 to 3 [2, 6]: 0.10 ± 0.10 | Neurological index (means ± esm), score 0 to 3 ([2]; moclobemide 2 × 50 mg/kg/day, TET 0, day 4): 0 | Neurological index (means ± esm), score 0 to 3 [2, 7]: 0 | Effect of TET on the neurological index ([2]; moclobemide 2×100 mg/kg/day + TET): inhibits the effect of TET | Neurological index (means ± esm), score 0 to 3 ([2]; moclobemide 2 × 100 mg/kg/day + TET 3 mg/kg/day, day 0): 0 | Neurological index (means ± esm), score 0 to 3 [2, 8]: 0 | Neurological index (means ± esm), score 0 to 3 ([2]; moclobemide 2 × 100 mg/kg/day + TET 3 mg/kg/day, day 2): 0 | Neurological index (means ± esm), score 0 to 3 ([2]; moclobemide 2 × 100 mg/kg/day + TET 3 mg/kg/day, day 3): 0.25 ± 0.15 | Neurological index (means ± esm), score 0 to 3 ([2]; moclobemide 2 × 100 mg/kg/day + TET 3 mg/kg/day, day 4): 0.85 ± 0.18 | Neurological index (means ± esm), score 0 to 3 ([2]; moclobemide 2 × 100 mg/kg/day + TET 3 mg/kg/day, day −3): 0 | Behavioural sign (neurological index) ([2]; moclobemide 2×100 mg/kg/day for 5 days): does not lead to any behavioural sign | Neurological index (means ± esm), score 0 to 3 [2, 9]: 0 | Neurological index (means ± esm), score 0 to 3 [2, 10]: 0 | Neurological index (means ± esm), score 0 to 3 [2, 11]: 0 | Neurological index (means ± esm), score 0 to 3 [2, 12]: 0 | Neurological index (means ± esm), score 0 to 3 ([2]; moclobemide 2 × 100 mg/kg/day, TET 0, day 4): 0 | Neurological index (means ± esm), score 0 to 3 [2, 13]: 0
